Source: US8273715B2, “Methods of treating fragile X syndrome” (Seaside Therapeutics, Inc., priority 2006, dated 2012)

Columns and labels:
Format in all cases: in vivo, human
[1] = test system: person one with autism spectrum disorder; assay: Example 2: baclofen in person one with autism spectrum disorder
Excerpt: . […] Dramatic improvements in mood and affect such as “looks comfortable, calm and happy” were also noted. Increased alertness, interest and motivation to work on cognitive/educational activities with school instructors were also noted. […]. Daily scores were averaged over the five weeks after initiating baclofen therapy and compared to the average scores for the five weeks immediately preceding initiation of baclofen therapy. […].

[2] = test system: person three with autism spectrum disorder; assay: Example 3: baclofen in person three with autism spectrum disorder
Excerpt: Parents also noted an improvement in sleep patterns, mood and affect. Increased alertness, interest and motivation to work on cognitive/educational activities were noted by school personnel. […] Daily scores were averaged over the five weeks after initiating baclofen therapy and compared to the average scores for the five weeks immediately preceding initiation of baclofen therapy.

[3] = test system: subjects with autism spectrum disorder; assay: Example 4: racemic baclofen in 21 subjects with autism spectrum disorder, clinician rating; details: of 21 subjects
Excerpt: The subjects had serious behavioral problems that were not controlled with a variety of medications including antiepileptics (N=14), antipsychotics (N=8) and antidepressants (N=6).

## NCC(CC(=O)O)c1ccc(Cl)cc1 (racemic) [baclofen, β-(Aminomethyl)-4-chlorobenzenepropanoic acid]
[1]; 5 mg bid, average of five weeks after initiation, before 10+2
  episodes of eye diversion: 5+2 episodes a day
[1]; about 5 mg bid, over the next several days and weeks
  cognitive and behavioral domains: improvements were noted
[2]; 5 mg bid, over the next several days and weeks
  cognitive and behavioral domains: improvements were noted
[2]; stable dosing at 5 mg bid
  time benefits have been maintained: 5 weeks
[3]
  number of subjects that did not improve: 11
